This is an account of results in PubChem BioAssay (Tox21).

Protein sequences, listed by entry. Tags and fused reporters are not part of them. Lines headed by an entry give the natural chain unless they say otherwise; changes in a name come on top.
UniProt P11511: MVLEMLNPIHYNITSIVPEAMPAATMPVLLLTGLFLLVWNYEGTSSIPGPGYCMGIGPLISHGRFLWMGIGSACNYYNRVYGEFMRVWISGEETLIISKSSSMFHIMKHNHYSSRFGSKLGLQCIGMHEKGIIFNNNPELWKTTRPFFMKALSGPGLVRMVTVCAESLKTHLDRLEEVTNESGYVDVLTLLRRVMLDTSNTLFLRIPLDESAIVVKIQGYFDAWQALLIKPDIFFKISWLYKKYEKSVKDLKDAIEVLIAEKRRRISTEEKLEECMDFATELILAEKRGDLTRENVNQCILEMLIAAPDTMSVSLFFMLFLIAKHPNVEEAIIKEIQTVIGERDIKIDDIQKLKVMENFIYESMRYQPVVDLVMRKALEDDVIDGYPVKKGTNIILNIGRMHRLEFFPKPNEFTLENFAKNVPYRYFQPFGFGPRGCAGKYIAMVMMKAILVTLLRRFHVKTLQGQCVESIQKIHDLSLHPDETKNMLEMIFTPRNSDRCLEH
UniProt P35869: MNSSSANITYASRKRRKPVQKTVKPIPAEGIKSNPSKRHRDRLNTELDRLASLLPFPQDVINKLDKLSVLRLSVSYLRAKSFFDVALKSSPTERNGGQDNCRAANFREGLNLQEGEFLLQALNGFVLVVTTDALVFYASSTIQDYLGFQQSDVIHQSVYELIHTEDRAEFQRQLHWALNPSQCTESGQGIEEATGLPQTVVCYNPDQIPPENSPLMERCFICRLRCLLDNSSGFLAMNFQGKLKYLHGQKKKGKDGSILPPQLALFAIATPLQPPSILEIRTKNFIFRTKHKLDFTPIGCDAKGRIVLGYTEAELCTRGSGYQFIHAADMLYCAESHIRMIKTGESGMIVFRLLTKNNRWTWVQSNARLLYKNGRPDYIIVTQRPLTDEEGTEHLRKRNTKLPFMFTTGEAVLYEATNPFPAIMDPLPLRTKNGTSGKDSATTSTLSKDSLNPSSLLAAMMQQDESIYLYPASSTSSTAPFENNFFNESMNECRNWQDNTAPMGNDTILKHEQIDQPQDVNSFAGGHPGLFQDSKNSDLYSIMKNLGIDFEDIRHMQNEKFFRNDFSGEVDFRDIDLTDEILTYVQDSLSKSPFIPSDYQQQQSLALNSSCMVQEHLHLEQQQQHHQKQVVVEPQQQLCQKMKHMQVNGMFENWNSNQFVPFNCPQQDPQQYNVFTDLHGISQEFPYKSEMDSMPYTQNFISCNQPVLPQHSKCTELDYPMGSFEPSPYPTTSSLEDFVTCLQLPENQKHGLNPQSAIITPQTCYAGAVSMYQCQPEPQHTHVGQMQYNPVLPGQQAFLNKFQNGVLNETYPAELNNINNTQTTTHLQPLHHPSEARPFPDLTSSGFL
UniProt P37231: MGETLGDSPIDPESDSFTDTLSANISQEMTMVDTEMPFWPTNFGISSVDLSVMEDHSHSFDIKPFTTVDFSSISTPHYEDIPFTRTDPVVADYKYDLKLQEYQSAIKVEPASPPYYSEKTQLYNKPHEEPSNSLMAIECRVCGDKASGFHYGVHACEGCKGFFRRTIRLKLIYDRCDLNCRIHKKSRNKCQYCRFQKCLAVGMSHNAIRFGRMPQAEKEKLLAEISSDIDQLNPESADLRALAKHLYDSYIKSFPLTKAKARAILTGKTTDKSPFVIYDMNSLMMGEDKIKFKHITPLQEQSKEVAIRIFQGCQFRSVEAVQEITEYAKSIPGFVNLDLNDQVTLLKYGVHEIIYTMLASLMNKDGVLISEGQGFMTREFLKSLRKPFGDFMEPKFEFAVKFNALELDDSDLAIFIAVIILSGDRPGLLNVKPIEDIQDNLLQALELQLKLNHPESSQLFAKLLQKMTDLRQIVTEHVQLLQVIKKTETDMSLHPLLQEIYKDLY
UniProt Q03181: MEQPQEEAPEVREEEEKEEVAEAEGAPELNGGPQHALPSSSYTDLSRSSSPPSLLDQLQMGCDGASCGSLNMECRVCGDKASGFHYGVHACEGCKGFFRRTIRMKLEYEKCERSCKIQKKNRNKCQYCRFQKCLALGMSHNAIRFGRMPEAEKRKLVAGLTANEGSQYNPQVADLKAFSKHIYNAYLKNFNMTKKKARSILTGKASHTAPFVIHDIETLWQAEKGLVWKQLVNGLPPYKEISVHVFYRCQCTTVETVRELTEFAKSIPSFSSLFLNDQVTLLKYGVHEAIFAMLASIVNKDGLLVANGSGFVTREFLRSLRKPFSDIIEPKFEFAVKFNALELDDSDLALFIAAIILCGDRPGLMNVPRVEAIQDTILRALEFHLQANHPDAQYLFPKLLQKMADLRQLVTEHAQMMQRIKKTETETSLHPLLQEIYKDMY
UniProt P11473: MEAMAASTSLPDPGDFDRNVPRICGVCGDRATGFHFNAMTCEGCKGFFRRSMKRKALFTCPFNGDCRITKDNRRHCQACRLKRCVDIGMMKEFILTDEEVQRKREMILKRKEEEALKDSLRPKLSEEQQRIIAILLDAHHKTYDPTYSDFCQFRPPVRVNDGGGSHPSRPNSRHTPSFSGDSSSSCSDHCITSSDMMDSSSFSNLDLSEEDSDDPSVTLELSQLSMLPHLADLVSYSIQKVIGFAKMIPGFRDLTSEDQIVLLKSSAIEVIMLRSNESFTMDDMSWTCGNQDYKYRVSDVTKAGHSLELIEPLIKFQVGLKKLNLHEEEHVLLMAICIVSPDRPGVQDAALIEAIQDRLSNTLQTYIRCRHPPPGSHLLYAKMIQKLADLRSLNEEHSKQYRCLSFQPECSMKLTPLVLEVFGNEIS
UniProt Q96RI1: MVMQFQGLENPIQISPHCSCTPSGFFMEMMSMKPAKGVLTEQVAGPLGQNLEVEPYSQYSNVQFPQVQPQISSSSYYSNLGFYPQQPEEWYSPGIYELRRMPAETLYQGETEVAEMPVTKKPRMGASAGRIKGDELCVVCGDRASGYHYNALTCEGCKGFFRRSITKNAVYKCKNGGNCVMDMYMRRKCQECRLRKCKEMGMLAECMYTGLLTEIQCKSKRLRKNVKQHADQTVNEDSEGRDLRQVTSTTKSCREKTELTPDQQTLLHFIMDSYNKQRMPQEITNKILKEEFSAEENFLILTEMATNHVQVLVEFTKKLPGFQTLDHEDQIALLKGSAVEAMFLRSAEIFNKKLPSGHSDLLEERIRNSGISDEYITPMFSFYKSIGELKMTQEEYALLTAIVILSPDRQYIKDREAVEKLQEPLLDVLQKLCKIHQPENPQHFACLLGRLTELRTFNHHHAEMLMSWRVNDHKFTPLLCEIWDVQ

Values joined by “and” are separate entries in the source; they are usually repeats but may differ in a detail not shown here. Identical values can stand only once. The list shows a part of the results, in another mix than the full data. Results filed as inconclusive are left out. Some compounds were tested as several samples or in several runs, with calls that do not always agree. Active and inactive are the calls of the source. Unless noted, calls come from the whole dose curve; as a rule, active = well fitted curve in the direction sought with a large enough effect in the repeat runs; inconclusive = weak or mixed curves; inactive = no such curve, though single readings can be large; an effect the other way counts as inactive or inconclusive.

One test deals with Aromatase (Homo sapiens) (UniProt P11511). Briefly: qHTS assay to identify aromatase inhibitors (AID 743083). Note: nearly all actives have a fitted effect of over 55% in size. For orientation: In qHTS, concentration-response curves come from the screen itself.
The nature of test [1]: qHTS assay to identify aromatase inhibitors - cell viability counter screen (AID 743084).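 Note: cells stimulated with testosterone during compound exposure; nearly all actives have a fitted effect of over 55% in size.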
For test [2], the target named is Aryl hydrocarbon receptor (Homo sapiens) (UniProt P35869). As to the kind of experiment: qHTS assay to identify small molecule that activate the aryl hydrocarbon receptor (AhR) signaling pathway (AID 743085).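 For activation: HG2L7.5c1 human HepG2 liver cells with stably integrated DRE-driven firefly reporter.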 Note: nearly all actives have a fitted effect of over 15% in size. Note: potency is the fitted concentration of half-maximal effect.
Test [3] deals with Peroxisome proliferator-activated receptor gamma (Homo sapiens) (UniProt P37231). Briefly: qHTS assay to identify small molecule agonists of the peroxisome proliferator-activated receptor gamma (PPARg) signaling pathway (AID 743094; active = well fitted activation curve with a large enough effect in the signal ratio in the repeat runs, not every such curve was filed as active; the % refers to the signal ratio). The note with it: HEK293H PPARg-UAS-bla, beta-lactamase FRET ratio, 17 h; at 57 µM (top of the series) unless noted. The procedure, abridged: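 GeneBLAzer PPARg UAS-bla HEK293H cells carrying a stably integrated beta-lactamase reporter were pre-incubated 5 h at 37C, then exposed to compounds in DMSO for 17 h at 37C; LiveBLAzer B/G FRET substrate was added for 1 h at room temperature and fluorescence read.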

Test [4] shares this target. As to the kind of experiment: qHTS assay to identify small molecule antagonists of the peroxisome proliferator-activated receptor gamma (PPARg) signaling pathway (AID 743191; calls by dose curve; note: nearly all actives have a fitted effect of over 30% in size). The note with it: HEK293H PPARg-UAS-bla, beta-lactamase ratio, antagonist, 17 h; at 62.6 µM (top of the series) unless noted.
A short description of test [5]: qHTS assay to identify small molecule antagonists of the peroxisome proliferator-activated receptor gamma (PPARg) signaling pathway - cell viability counter screen (AID 743194). Note: nearly all actives have a fitted effect of over 55% in size. The procedure, abridged: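 Cytotoxicity counter screen in PPARg-bla HEK293H cells, same wells as reporter assay. Compounds plus 50 nM rosiglitazone (final) for 17 h at 37 C, then viability read by CellTiter-Glo luminescence.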

The nature of test [6]: qHTS assay for small molecule agonists of the antioxidant response element (ARE) signaling pathway (AID 743202; active = well fitted activation curve with a large enough effect in the signal ratio in the repeat runs, not every such curve was filed as active; the % refers to the signal ratio; note: potency is the fitted concentration of half-maximal effect). The procedure, abridged:
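ARE-bla HepG2 cells (beta-lactamase reporter under the antioxidant response element), plated 5 hours, then exposed to compounds 16 hours at 37 C. LiveBLAzer B/G FRET substrate added for 2 hours at room temperature; fluorescence intensity read.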

Test [7] is described as follows: qHTS assay for small molecule agonists of the antioxidant response element (ARE) signaling pathway - cell viability counter screen (AID 743203; calls by dose curve; note: nearly all actives have a fitted effect of over 55% in size). The procedure, abridged: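 CellSensor ARE-bla HepG2 cells, 2,000 per well, rested 5 hrs at 37C/5% CO2, then exposed to compound in DMSO for 16 hrs; viability read as CellTiter-Glo luminescence after 30 min at room temperature, in the reporter wells.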

The nature of test [8]: qHTS assay for small molecule activators of the heat shock response signaling pathway - cell viability counter screen (AID 743209). Note: nearly all actives have a fitted effect of over 50% in size. The procedure, abridged: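 CellSensor HSE-bla HeLa cells, plated overnight at 37 C/5% CO2, were exposed to compounds in DMSO for 5 h at 37 C. Viability was then read in the same wells by CellTiter-Glo luminescence after 30 min at room temperature.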

Test [9] in a line: qHTS assay for small molecule activators of the heat shock response signaling pathway (AID 743210; active = well fitted activation curve with a large enough effect in the signal ratio in the repeat runs, with a control signal flat, not every such curve was filed as active; the % refers to the signal ratio). The following applies: HeLa HSE-bla reporter, beta-lactamase ratio, 5 h; at 62.6 µM (top of the series) unless noted. The procedure, abridged: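 HSE-bla HeLa cells (beta-lactamase reporter under heat shock response elements), plated overnight, then exposed to compounds 5 h at 37 C; LiveBLAzer B/G FRET substrate added, 2.5 h at room temperature, fluorescence intensity read.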

Test [10] is described as follows: qHTS assay to identify small molecule agonists of the peroxisome proliferator-activated receptor delta (PPARd) signaling pathway - cell viability counter screen (AID 743211). Note: nearly all actives have a fitted effect of over 55% in size. The procedure, abridged: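 PPARd-bla HEK293H cells (UAS-beta-lactamase reporter) were treated with compounds for 17 h at 37 C. Viability was then read in the same wells by CellTiter-Glo luminescence after 30 min at room temperature.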

The target in test [11] is Peroxisome proliferator-activated receptor delta (Homo sapiens) (UniProt Q03181). Briefly: qHTS assay to identify small molecule agonists of the peroxisome proliferator-activated receptor delta (PPARd) signaling pathway (AID 743212; calls by dose curve). The note with it: HEK293H PPARd-UAS-bla, beta-lactamase FRET ratio, 17 h; at 62.6 µM (top of the series). A digest of the protocol:
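GeneBLAzer UAS-bla HEK293H cells carrying a PPARδ construct were exposed to compounds at 37 °C. Beta-lactamase activity was read by FRET fluorescence after 2 h at room temperature with LiveBLAzer B/G substrate.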

Test [12] has the same target. As to the kind of experiment: qHTS assay to identify small molecule antagonists of the peroxisome proliferator-activated receptor delta (PPARd) signaling pathway (AID 743215; active = well fitted inhibition curve with a large enough effect in the signal ratio in the repeat runs, not every such curve was filed as active; the % refers to the signal ratio;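 note: cells stimulated with agonist L165041 at 300 nM final during compound exposure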). The following applies: HEK293H PPARd-UAS-bla, beta-lactamase FRET ratio, antagonist, 17 h; at 62 µM (top of the series). A digest of the protocol:
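PPARd UAS-bla HEK293H cells were pre-incubated 5 h at 37 C, then given test compounds in DMSO plus agonist L165041 (300 nM final). After 17 h at 37 C, beta-lactamase FRET substrate was added; fluorescence read after 2 h at room temperature.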

Test [13] is described as follows: qHTS assay to identify small molecule agonists of the farnesoid-X-receptor (FXR) signaling pathway - cell viability counter screen (AID 743218). Note: nearly all actives have a fitted effect of over 45% in size. Note: potency is the fitted concentration of half-maximal effect. A digest of the protocol: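 FXR-UAS-bla HEK 293T cells, plated 5 h at 37 C, were exposed to compounds for 16 h at 37 C. CellTiter-Glo was then added to the same wells as the bla readout; luminescence read after 30 min at room temperature.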

Test [14] is described as follows: qHTS assay to identify small molecule antagonists of the farnesoid-X-receptor (FXR) signaling pathway - cell viability counter screen (AID 743221; active = well fitted cell-killing curve with a large enough effect in the repeat runs, not every such curve was filed as active; note: nearly all actives have a fitted effect of over 50% in size).
Test [15] deals with Vitamin D3 receptor (Homo sapiens) (UniProt P11473). As to the kind of experiment: qHTS assay to identify small molecule agonists of the vitamin D receptor (VDR) signaling pathway (AID 743222; calls by dose curve). The note with it: HEK293T VDR-UAS-bla, beta-lactamase FRET ratio, 16 h; at 63.5 µM (top of the series) unless noted. A digest of the protocol: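 VDR-bla cells were plated 4 h at 37C/5% CO2, then exposed to compounds in DMSO for 16 h. After LiveBLAzer B/G FRET substrate addition and 2 h at room temperature, beta-lactamase reporter fluorescence was read.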

The nature of test [16]: qHTS assay to identify small molecule antagonists of the estrogen receptor alpha (ER-alpha) signaling pathway using the BG1 cell line - cell viability counter screen (AID 743081).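 Note: compound given together with 17beta-estradiol as the ER stimulus; nearly all actives have a fitted effect of over 45% in size.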 Note: potency is the fitted concentration of half-maximal effect.
Test [17] is described as follows: qHTS assay to identify small molecule that activate the aryl hydrocarbon receptor (AhR) signaling pathway - cell viability counter screen (AID 743086).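 Note: HepG2 liver cells carrying the AhR DRE luciferase reporter; nearly all actives have a fitted effect of over 45% in size.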 A digest of the protocol:
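HepG2-AhR-luc (HG2L7.5c1) cells, 4000/well, treated 24 h at 37 C with compound; viability measured as CellTiter-Fluor fluorescence after 30 min in the same wells as the luciferase read.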

For test [18], the target named is Bile acid receptor (Homo sapiens) (UniProt Q96RI1). As to the kind of experiment: qHTS assay to identify small molecule antagonists of the farnesoid-X-receptor (FXR) signaling pathway (AID 743217; active = well fitted inhibition curve with a large enough effect in the signal ratio in the repeat runs, not every such curve was filed as active; the % refers to the signal ratio). The following applies: HEK293T FXR-UAS-bla, beta-lactamase ratio, CDCA-stimulated, 16 h; at 62.6 µM (top of the series) unless noted. A digest of the protocol:
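FXR-UAS-bla HEK 293T cells pre-incubated 5 h at 37 °C, then exposed to compounds with chenodeoxycholic acid (50 uM final) for 16 h at 37 °C. Beta-lactamase reporter read by LiveBLAzer B/G FRET substrate fluorescence after 2 h at room temperature.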

Test [19] shares this target. Briefly: qHTS assay to identify small molecule agonists of the farnesoid-X-receptor (FXR) signaling pathway (AID 743220; active = well fitted activation curve with a large enough effect in the signal ratio in the repeat runs, not every such curve was filed as active; the % refers to the signal ratio). The note with it: HEK293T FXR-UAS-bla, beta-lactamase FRET ratio, 16 h; at 62.6 µM (top of the series).
% is set by controls: 0 for no effect and ±100 for the full control effect.

For `CN(C(=O)Cc1ccc(Cl)c(Cl)c1)[C@H]1CC[C@@]2(CCCO2)C[C@@H]1N1CCCC1`, the Potency entry (with Aromatase (Homo sapiens); in test [1]; in test [2]; in test [5]; in [6]; in [7]) was “inactive” in each case. In addition, the Potency result in test [8], in [10], in test [13] and in test [14] was “inactive” throughout. The activation was inactive: -2.33% in [3], inactive: 0.35% in test [9], inactive: -1.32% in test [11] and inactive: 0% in [15]. Also, the ratio activity, negative = inhibition in [4] is inactive: -9.98%; in [12] it was inactive: 0.563%.

For the compound `O=C(OC1CN2CCC1CC2)c1ccccc1` (stereo unspecified), the Potency entry (in test [16]; with Aromatase (Homo sapiens); in test [1]; in test [2]; in [17]) was “inactive” each time. For the same compound, the activation in test [3] is inactive: -6.95%.

On to `O=P(Cl)(Cl)c1ccccc1`, for which the Potency entry (in test [16]; with Aromatase (Homo sapiens); in test [1]; in test [2]; in test [17]; in test [5]) was “inactive” throughout. Moreover, the Potency result in test [6], in test [8], in [10], in [13] and in [14] was “inactive” throughout. In addition, the activation in test [3] was inactive: 2.69%; in test [9], inactive: -1.2%; in test [11], inactive: -1.11%; in test [15], inactive: -4.09%. Also, the ratio activity, negative = inhibition in test [4] was inactive: 12.7%.

With `CC(C)OP(=S)(OC(C)C)SCCNS(=O)(=O)c1ccccc1`, the Potency result in [16], in test [1], in test [8], in test [13] and in test [14] was “inactive” in each case. Also, the Potency in test [2] was active: 5.45 µM. Further, the results for the activation in test [9] and in test [15] were inactive: 0.0276% and inactive: -17%, respectively.

Turning to `COC(=O)Cl`, the Potency result (in [16]; with Aromatase (Homo sapiens); in test [1]; in [2]; in test [17]; in [5]) was “inactive” each time. The Potency entry in test [6], in test [7], in [8], in test [10] and in test [14] was “inactive” throughout. For the same compound, the activation in test [3] is inactive: 3.81%; in test [9] it was inactive: 2.93%; in test [11], inactive: -3.33%; in test [19] it was inactive: -0.264%; in test [15], inactive: -2.24%. In addition, the activity change, negative = inhibition in test [18] was inactive: -2.16%.

With `CCCCO[P+](=O)OCCCC`, the Potency result (in test [16]; with Aromatase (Homo sapiens); in test [1]; in [2]; in [17]; in test [5]) was “inactive” each time. Moreover, the Potency result in test [6], in test [7], in test [8], in [10], in test [13] and in test [14] was “inactive” throughout. The activation was inactive: 1.44% and inactive: 1.3% in [3]; inactive: 0.617% and inactive: 0.112% in [9]; inactive: 1.47% in [15]. The ratio activity, negative = inhibition in [4] was inactive: -5.8% and inactive: 0.169%.

On to `Cc1cc([N+](=O)[O-])cc([N+](=O)[O-])c1O`, for which the Potency was active: 15.4 µM in [16]; “inactive and active: 43.3 µM” in test [2]; active: 8.63 µM and active: 4.86 µM in test [6]; “inactive and active: 1.06 µM” in [13]. The Potency result in test [8] and in test [14] was “inactive” in each case. For the same compound, the activation in test [19] is inactive: -0.171%.
